Molecular target: RAC-gamma serine/threonine-protein kinase (Homo sapiens, UniProt Q9Y243)
Experiment: Inhibition of AKT3 in presence of 0.2 uM ATP
Summary of the method: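 Biochemical kinase IC50s, each run with ATP at or below its Km.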

Protein sequences, listed by entry. Tags and fused reporters are not part of them. Lines headed by an entry give the natural chain unless they say otherwise; changes in a name come on top.
UniProt Q9Y243: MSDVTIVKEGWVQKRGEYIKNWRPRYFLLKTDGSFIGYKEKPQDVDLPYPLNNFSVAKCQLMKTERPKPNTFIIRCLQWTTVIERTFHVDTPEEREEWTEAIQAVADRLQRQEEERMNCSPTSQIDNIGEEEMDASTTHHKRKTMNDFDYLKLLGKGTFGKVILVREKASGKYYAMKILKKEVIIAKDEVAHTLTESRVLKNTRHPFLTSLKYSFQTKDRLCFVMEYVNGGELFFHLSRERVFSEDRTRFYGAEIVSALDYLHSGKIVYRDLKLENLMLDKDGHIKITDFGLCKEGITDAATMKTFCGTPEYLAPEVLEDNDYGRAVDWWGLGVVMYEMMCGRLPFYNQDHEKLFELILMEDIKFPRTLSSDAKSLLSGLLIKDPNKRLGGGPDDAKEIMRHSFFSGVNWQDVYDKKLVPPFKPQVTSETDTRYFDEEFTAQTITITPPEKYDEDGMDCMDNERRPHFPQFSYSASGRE

- IC50: 2.6 nM
Structure (SMILES): CNc1nccc(-c2ccc(C(=O)N[C@H](CN)Cc3ccc(Cl)cc3Cl)s2)n1

From ChEMBL document CHEMBL1146851, “Discovery of 2-pyrimidyl-5-amidothiophenes as potent inhibitors for AKT: synthesis and SAR studies” (Bioorg Med Chem Lett, 2006)
